Data reported in patent US6630120B1, “Agents to increase the uptake of pharmaceuticals and diagnostic substances into solid tumors” (priority 1999, dated 2003).

The chains behind the UniProt entries cited, without tags or fusion partners.
UniProt P25023, whole entry: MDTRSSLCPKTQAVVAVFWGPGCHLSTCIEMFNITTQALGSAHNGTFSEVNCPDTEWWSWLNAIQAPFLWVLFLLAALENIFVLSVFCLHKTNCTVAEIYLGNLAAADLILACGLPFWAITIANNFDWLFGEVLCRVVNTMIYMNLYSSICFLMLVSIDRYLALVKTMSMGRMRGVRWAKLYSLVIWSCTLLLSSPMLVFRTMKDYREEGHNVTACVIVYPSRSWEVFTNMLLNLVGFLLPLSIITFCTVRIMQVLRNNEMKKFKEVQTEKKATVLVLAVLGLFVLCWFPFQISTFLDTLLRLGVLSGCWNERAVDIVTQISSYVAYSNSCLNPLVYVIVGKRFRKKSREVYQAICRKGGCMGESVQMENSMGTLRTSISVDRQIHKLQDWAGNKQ

Target: T1, B2 receptors (Rattus norvegicus, UniProt P25023)
T1 construct: from tissue; host or cells: live male Fisher rats with subcutaneous MAT B-III tumours (tumour vasculature)
Assay: Effect of B2 receptor blocking on the uptake of carboplatin into tumors
Assay type: in vivo
Conditions: FIG. 15; HOE-140 100 μg/kg infused 15 minutes starting 5 minutes prior to Cereport infusion (1.0 1μg/kg)
Description: In one set of experiments, the B2 receptor blocking agent D-Arg[Hyp^3-Thi^5-D-Tic^7-Oic^8] (HOE-140) (100 μg/kg) was infused for 15 minutes starting 5 minutes prior to the Cereport™ infusion (1.0 1μg/kg) and extending throughout the 10 minute Cereport™ infusion.

D-Arg[Hyp^3-Thi^5-D-Tic^7-Oic^8] [HOE-140]
effect on the carboplatin uptake effects of Cereport in inner and outer tumor: nullified
